Experimental findings from patent US20140328918A1, “METHODS OF TREATING A SUBJECT AND RELATED PARTICLES, POLYMERS AND COMPOSITIONS” (CERULEAN PHARMA INC., priority 2010, published 2014) are described below.

This series is described as follows: Lyophilization and reconstitution of PEGylated nanoparticles: appearance and particle size (Zetasizer). The series is classed as physicochemical. Particulars: nanoparticles A, lyoprotectant 100 mg/mL.

As to `OC[C@H]1O[C@@](CO)(O[C@H]2O[C@H](CO)[C@@H](O)[C@H](O)[C@H]2O)[C@@H](O)[C@@H]1O` [Sucrose, sucrose], the Dv90 runs as follows: (polymer 26.05 mg/mL (3.8:1)) 124 nm; (sucrose cycle, polymer 31.25 mg/mL (3.2:1)) 124 nm.
